Key:
MCF7 [1] = assay: Induction of mitotic microtubule depolymerization in human MCF7 cells assessed as ratio of polymeric to soluble tubulin at 30 nM after 48 hrs by Western blot analysis; type: cell-based
MCF7 [2] = assay: Induction of mitotic microtubule depolymerization in human MCF7 cells assessed as ratio of polymeric to soluble tubulin at 60 nM after 48 hrs by Western blot analysis; type: cell-based

CC[C@H](C)[C@@H]([C@@H](CC(=O)NC[C@H]1O[C@H](C(=O)NCCc2ccccc2)[C@@H](OC)[C@@H]1OC)OC)N(C)C(=O)[C@@H](NC(=O)[C@@H](NC)C(C)C)C(C)C
Ratio (MCF7 [1]): 0.8 | Ratio (MCF7 [2]): 0.6
